The record followed here is US20230183243A1, “HETEROARYL DERIVATIVES AND PHARMACEUTICAL COMPOSITION COMPRISING SAME AS ACTIVE INGREDIENT” (VORONOI INC., priority 2019, published 2023).

The chains behind the UniProt entries cited, without tags or fusion partners.
UniProt P33981, whole entry: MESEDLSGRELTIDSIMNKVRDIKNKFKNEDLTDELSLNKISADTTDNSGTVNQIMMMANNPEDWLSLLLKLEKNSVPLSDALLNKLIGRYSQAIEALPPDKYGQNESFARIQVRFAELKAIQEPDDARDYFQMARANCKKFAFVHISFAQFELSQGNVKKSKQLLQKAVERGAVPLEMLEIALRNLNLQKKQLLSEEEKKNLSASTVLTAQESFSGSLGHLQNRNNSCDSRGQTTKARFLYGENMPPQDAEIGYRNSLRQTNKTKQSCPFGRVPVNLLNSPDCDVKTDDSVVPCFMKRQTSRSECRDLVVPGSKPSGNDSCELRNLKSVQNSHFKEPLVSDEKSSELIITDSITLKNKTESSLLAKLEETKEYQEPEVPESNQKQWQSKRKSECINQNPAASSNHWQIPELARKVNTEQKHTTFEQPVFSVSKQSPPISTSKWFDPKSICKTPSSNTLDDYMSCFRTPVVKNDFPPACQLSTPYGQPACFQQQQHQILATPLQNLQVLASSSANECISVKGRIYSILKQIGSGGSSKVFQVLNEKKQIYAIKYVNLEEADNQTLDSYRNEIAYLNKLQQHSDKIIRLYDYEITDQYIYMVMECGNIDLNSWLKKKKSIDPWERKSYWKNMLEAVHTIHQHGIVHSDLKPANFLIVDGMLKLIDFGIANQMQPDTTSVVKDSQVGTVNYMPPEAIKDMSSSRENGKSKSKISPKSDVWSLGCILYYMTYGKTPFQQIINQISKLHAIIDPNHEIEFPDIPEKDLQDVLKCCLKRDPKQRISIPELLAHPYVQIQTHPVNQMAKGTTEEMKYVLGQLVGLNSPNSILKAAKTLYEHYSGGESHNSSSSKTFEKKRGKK

A value given as a limit tells only on which side of the number the result lay.

The target of one assay is human TTK (Homo sapiens, UniProt P33981). Nature of the assay: TTK enzyme activity, ADP-Glo kinase assay. As to conditions: read-out: TTK Activity (IC50); purified human TTK, ATP 10 μM, 25° C., 2 hours. In general terms: In ADP-Glo the light output rises with the ADP produced.
Another assay deals with MDA-MB-231 cells. Briefly: Inhibition of proliferation of triple-negative breast cancer cells, CellTiter-Glo. As to conditions: read-out: MDA-MB-231 Activity (GI50); MDA-MB-231, cultured for 5 days. (In ATP-based viability assays light output follows the ATP content of the culture.)
For a further assay, the system named is SHP-77. Nature of the assay: Inhibition of proliferation of small cell lung cancer cells, CellTiter-Glo. As to conditions: read-out: SHP-77 Activity (GI50); SHP-77, cultured for 5 days. As to the method: Specifically, the following test was performed to evaluate the inhibitory activity of the compound according to the present invention against the cell proliferation in the SCLC cells.
To check an inhibitory ability of cell growth in one SCLC cell line, a test was performed as follows. Cells were seeded in 180 μL of a culture broth at a density of 2,000 to 3,000 cells/well in a white clear bottom 96-well plate (Corning) according to the growth ability of each cell, and then cultured for 24 hours under conditions of 5% CO2 and 37° C. Thereafter, the compound was prepared by diluting a 10 mM stock solution three-fold with 100% DMSO at a total of 12 concentrations so that a peak concentration of the compound was in a range of 10 mM to 0.05 μM, and the diluted compound was then diluted in each cell culture medium so that a final concentration of the compound was in a range of 100 μM to 0.5 nM. […] Then, a degree of luminescence (fluorescence) was measured. A degree of inhibition of the cell growth according to the treatment concentration of each of the compounds was calculated based on the fluorescence of the solvent control cells which were not treated with the compound. […]

With `COCCNc1nc(Nc2ccc(-c3cnn(C)c3)c3c2OCCO3)nc2[nH]cc(C#N)c12`, the IC50 on human TTK was less than 0.05 µM. The GI50 in the assay on MDA-MB-231 cells and with SHP-77 was less than 0.1 µM in each case.

The term IC50 denotes the midpoint of a concentration-inhibition curve. As usually defined, the GI50 is the concentration that inhibits growth by half.
